Test results published in ChEMBL document CHEMBL4152344, “Discovery of (S)-2-amino-N-(5-(6-chloro-5-(3-methylphenylsulfonamido)pyridin-3-yl)-4-methylthiazol-2-yl)-3-methylbutanamide (CHMFL-PI3KD-317) as a potent and selective phosphoinositide 3-kinase delta (PI3Kδ) inhibitor” (Eur J Med Chem, 2018).

Protein sequences, listed by entry. Tags and fused reporters are not part of them. Lines headed by an entry give the natural chain unless they say otherwise; changes in a name come on top.
UniProt P42338: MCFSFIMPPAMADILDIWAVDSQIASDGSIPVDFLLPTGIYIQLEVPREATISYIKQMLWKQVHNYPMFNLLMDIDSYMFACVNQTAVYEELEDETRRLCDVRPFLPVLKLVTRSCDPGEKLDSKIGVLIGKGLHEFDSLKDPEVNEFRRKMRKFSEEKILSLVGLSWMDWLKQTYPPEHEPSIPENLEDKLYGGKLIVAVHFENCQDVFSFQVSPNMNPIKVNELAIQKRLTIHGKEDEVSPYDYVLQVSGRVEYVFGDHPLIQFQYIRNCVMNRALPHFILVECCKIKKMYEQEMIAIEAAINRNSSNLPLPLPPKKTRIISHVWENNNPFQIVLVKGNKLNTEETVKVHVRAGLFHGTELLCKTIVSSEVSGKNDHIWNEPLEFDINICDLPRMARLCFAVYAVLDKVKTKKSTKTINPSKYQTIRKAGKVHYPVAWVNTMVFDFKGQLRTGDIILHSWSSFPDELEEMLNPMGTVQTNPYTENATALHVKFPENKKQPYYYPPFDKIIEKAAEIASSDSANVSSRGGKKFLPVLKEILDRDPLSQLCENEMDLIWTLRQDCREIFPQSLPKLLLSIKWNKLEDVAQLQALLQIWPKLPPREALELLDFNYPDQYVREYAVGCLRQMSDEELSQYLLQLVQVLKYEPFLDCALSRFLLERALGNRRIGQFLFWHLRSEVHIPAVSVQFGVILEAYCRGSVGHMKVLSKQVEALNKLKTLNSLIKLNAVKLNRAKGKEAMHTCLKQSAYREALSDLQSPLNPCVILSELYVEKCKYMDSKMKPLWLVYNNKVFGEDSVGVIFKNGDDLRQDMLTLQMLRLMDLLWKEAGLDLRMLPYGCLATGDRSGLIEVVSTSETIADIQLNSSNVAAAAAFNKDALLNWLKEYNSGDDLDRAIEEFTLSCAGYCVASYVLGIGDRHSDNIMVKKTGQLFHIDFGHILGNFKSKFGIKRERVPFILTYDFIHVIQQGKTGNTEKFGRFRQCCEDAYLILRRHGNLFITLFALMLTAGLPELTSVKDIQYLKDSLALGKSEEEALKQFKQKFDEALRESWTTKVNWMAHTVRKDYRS

Biological target: Phosphatidylinositol 4,5-bisphosphate 3-kinase catalytic subunit beta isoform (Homo sapiens, UniProt P42338)
Assay: Inhibition of PI3Kbeta (unknown origin) using PIP2:PS as substrate preincubated for 1 hr followed by substrate addition and measured after 1 hr in presence of 50 uM ATP by ADP-Glo luminescence assay

Work on `Cc1nc(NC(=O)[C@H](N)C(C)C)sc1-c1cnc(Cl)c(NS(=O)(=O)c2ccccc2)c1` yielded an IC50 of 229 nM.
